Results published in patent US20190060384A1, “COMPOSITION FOR TREATMENT OR PREVENTION OF LUNG CANCER AND A METHOD THEREFORE” (priority 2017, published 2019).

Conditions: mouse, in vivo, po

`COc1cc2ncnc(Nc3ccc(F)c(Cl)c3)c2cc1OCCCN1CCOCC1` [Gefitinib, gefitinib] showed a CHO of 142.00 ± 21.53 mg/dL, a CPK of 192.57 ± 36.57 IU/L and a Ca of 10.40 ± 0.28 mg/dL. It also gave a Na of 141.29 ± 1.11 mmol/L and a P of 10.13 ± 0.29 mg/dL.
